Paper PMC12154555, “Beyond natural flavonoids: exploring bioisosterism in design and synthesis of influenza endonuclease inhibitors” (RSC Medicinal Chemistry, 2025)

Key:
influenza A polymerase [1] = target: T1, influenza A polymerase (Influenza A virus, UniProt P15659); test: cell-based; parameters: species or system influenza A/WSN/33 H1N1
influenza A polymerase [2] = target: T1, influenza A polymerase; test: cell-based; parameters: species or system influenza A/WSN/33 H1N1; remark: listed apart in the source

**Q.** `COC(=O)OCOc1c2n(ccc1=O)N([C@@H]1c3ccccc3SCc3c1ccc(F)c3F)[C@@H]1COCCN1C2=O` [BMX, baloxavir marboxil, reference compound] was tested. Which EC50 (influenza A polymerase [1]) did it give?
**A.** 2 ± 0.6 nM

**Q.** And the EC50 (influenza A polymerase [2])?
**A.** 4 ± 1 nM

Read-outs that look alike come from different tables or passages of the source.
